Experimental findings from PubChem BioAssay AID720513 (Broad Institute, 2013) are described below.

For this assay, the system named is U2OS PGC1a acetylation AlphaLISA, overnight. The assay can be described thus: activators raising PGC1a acetylation in cells, dose response, cell-based, cherry-picked samples, set 6 (AID 720513).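 Note: cells made to overexpress flag tagged PGC1a plus GCN5 acetyltransferase by viral infection.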

Records with an inconclusive call do not appear.

For `O=c1[nH]c2ccccc2n1C1CCN(C(c2ccccc2OC(F)(F)F)c2nnnn2C2CCCCC2)CC1` (stereo unspecified), the AC40 was 11.4 µM.
